By UniProt entry, the sequences of proteins in these tests, tags left out.
UniProt P14842, whole entry: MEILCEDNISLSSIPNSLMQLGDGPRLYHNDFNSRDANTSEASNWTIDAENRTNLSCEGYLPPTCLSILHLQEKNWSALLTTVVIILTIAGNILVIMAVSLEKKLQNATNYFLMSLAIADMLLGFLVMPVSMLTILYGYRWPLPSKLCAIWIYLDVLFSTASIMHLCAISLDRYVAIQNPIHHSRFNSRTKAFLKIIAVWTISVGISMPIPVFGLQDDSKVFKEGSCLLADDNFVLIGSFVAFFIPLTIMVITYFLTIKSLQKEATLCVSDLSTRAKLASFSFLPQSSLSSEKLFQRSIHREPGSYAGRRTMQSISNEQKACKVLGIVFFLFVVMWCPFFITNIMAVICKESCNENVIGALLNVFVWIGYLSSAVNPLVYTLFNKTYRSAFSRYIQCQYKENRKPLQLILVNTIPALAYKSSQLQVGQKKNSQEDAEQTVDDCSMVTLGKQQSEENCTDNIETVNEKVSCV

In ChEMBL document CHEMBL1134201, “Exploring the relationship between binding modes of 9-(aminomethyl)-9,10-dihydroanthracene and cyproheptadine analogues at the 5-HT2A serotonin receptor” (Bioorg Med Chem Lett, 2001):

Target: 5-hydroxytryptamine receptor 2A (Rattus norvegicus, UniProt P14842)
Experiment: Binding affinity against 5-hydroxytryptamine 2A receptor expressed NIH3T3 cells using [3H]ketanserin
Type: cell-based

Ki [µM] | Compound
20.8 | NCC1c2ccccc2-c2ccccc21
4.12 | NCC1c2ccccc2C=Cc2ccccc21
